From ChEMBL document CHEMBL1148829, “Cinnamoyl derivatives of 7alpha-aminomethyl-6,14-endo-ethanotetrahydrothebaine and 7alpha-aminomethyl-6,14-endo-ethanotetrahydrooripavine and related opioid ligands” (2007)

Sequences of proteins named here, by UniProt entry; tags and fusion partners are left off.
UniProt P41145, whole entry: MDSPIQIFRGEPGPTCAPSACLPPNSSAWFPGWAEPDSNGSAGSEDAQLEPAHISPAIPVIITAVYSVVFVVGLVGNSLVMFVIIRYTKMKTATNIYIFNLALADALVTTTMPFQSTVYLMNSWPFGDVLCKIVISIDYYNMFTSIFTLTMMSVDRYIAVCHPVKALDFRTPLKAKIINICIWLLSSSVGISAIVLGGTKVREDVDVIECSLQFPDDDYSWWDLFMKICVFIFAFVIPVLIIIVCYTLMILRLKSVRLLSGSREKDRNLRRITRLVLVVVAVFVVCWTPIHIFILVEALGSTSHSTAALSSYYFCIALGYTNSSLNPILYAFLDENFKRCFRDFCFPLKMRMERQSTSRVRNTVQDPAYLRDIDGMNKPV
UniProt P41143, whole entry: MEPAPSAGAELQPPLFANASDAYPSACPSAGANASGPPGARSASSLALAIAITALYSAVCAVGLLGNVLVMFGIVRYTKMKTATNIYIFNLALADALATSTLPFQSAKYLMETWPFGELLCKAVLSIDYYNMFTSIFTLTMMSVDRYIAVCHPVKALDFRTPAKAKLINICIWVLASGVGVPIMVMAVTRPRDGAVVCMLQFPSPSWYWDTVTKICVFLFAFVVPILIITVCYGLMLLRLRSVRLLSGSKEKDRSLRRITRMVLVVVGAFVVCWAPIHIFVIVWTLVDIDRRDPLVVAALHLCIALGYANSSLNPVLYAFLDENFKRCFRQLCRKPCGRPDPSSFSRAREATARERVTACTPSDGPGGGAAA

Experiments:
[1] = molecular target: T1, Kappa-type opioid receptor (Homo sapiens, UniProt P41145); assay: Displacement of [3H]U-69593 from human cloned kappa opioid receptor
[2] = molecular target: T1, Kappa-type opioid receptor; assay: Agonist activity at human kappa opioid receptor expressed in CHO cells assessed as stimulation of [35S]GTP-gamma-S binding
[3] = molecular target: Delta-type opioid receptor (Homo sapiens, UniProt P41143); assay: Displacement of [3H]DPDPE from human cloned delta opioid receptor
Mu-type opioid receptor = Mu-type opioid receptor (UniProt P35372+P41143); assay: Agonist activity at human delta opioid receptor expressed in CHO cells assessed as stimulation of [35S]GTP-gamma-S binding

COc1ccccc1/C=C/C(=O)NC[C@H]1C[C@@]23CC[C@@]1(OC)[C@@H]1Oc4c(OC)ccc5c4[C@@]12CCN(C)[C@@H]3C5
Ki [1]: 0.0447 µM | EC50 [2]: 0.159 µM | Ki [3]: 0.0879 µM

COc1ccc2c3c1O[C@H]1[C@]4(OC)CC[C@@]5(C[C@@H]4CNC(=O)/C=C/c4ccc(Cl)cc4)[C@@H](C2)N(C)CC[C@]315
Ki [1]: 0.155 µM | Ki [3]: 0.289 µM

COc1ccc2c3c1O[C@H]1[C@]4(OC)CC[C@@]5(C[C@@H]4CNC(=O)/C=C/c4ccc(C)cc4)[C@@H](C2)N(C)CC[C@]315
Ki [1]: 0.159 µM | EC50 [2]: 0.29 µM | Ki [3]: 0.246 µM

CO[C@@]12C=C[C@@]3([C@@H]4CN(C(=O)/C=C/c5ccccc5C)C[C@@H]41)[C@H]1Cc4ccc(O)c5c4[C@@]3(CCN1C)[C@H]2O5
Ki [1]: 0.00052 µM | EC50 [2]: 0.00395 µM | EC50 (Mu-type opioid receptor): 0.0018 µM | Ki [3]: 0.00236 µM

COc1ccc2c3c1O[C@H]1[C@]4(OC)CC[C@@]5(C[C@@H]4CNC(=O)/C=C/c4ccc([N+](=O)[O-])cc4)[C@@H](C2)N(C)CC[C@]315
Ki [1]: 0.058 µM | EC50 [2]: 0.133 µM | Ki [3]: 0.133 µM

CO[C@@]12CC[C@@]3(C[C@@H]1CNC(=O)/C=C/c1ccc(Cl)cc1)[C@H]1Cc4ccc(O)c5c4[C@@]3(CCN1C)[C@H]2O5
Ki [1]: 0.00185 µM | EC50 [2]: 0.00862 µM | EC50 (Mu-type opioid receptor): 0.0354 µM | Ki [3]: 0.008 µM

CO[C@@]12CC[C@@]3(C[C@@H]1CNC(=O)/C=C/c1ccc([N+](=O)[O-])cc1)[C@H]1Cc4ccc(O)c5c4[C@@]3(CCN1C)[C@H]2O5
Ki [1]: 0.00172 µM | EC50 [2]: 0.00749 µM | Ki [3]: 0.00538 µM

CO[C@@]12C=C[C@@]3([C@@H]4CN(C(=O)/C=C/c5ccc(C)cc5)C[C@@H]41)[C@H]1Cc4ccc(O)c5c4[C@@]3(CCN1C)[C@H]2O5
Ki [1]: 0.00141 µM | EC50 [2]: 0.00333 µM | EC50 (Mu-type opioid receptor): 0.0144 µM | Ki [3]: 0.00483 µM

COc1ccc2c3c1O[C@H]1[C@]4(OC)CC[C@@]5(C[C@@H]4CNC(=O)/C=C/c4ccccc4Cl)[C@@H](C2)N(C)CC[C@]315
Ki [1]: 0.0222 µM | EC50 [2]: 0.0567 µM | EC50 (Mu-type opioid receptor): 0.106 µM | Ki [3]: 0.0941 µM

COc1ccc2c3c1O[C@H]1[C@]4(OC)CC[C@@]5(C[C@@H]4CNC/C=C/c4ccc(Cl)cc4)[C@@H](C2)N(C)CC[C@]315
Ki [1]: 0.0679 µM | EC50 [2]: 0.233 µM | Ki [3]: 0.742 µM

COc1ccc(/C=C/C(=O)NC[C@H]2C[C@@]34CC[C@@]2(OC)[C@@H]2Oc5c(OC)ccc6c5[C@@]23CCN(C)[C@@H]4C6)cc1
Ki [1]: 0.109 µM | EC50 [2]: 0.68 µM | Ki [3]: 0.322 µM

COc1ccc2c3c1O[C@H]1[C@]4(OC)CC[C@@]5(C[C@@H]4CNC(=O)/C=C/c4ccccc4C)[C@@H](C2)N(C)CC[C@]315
Ki [1]: 0.021 µM | EC50 [2]: 0.0744 µM | Ki [3]: 0.0657 µM

COc1ccc2c3c1O[C@H]1[C@]4(OC)CC[C@@]5(C[C@@H]4CNC(=O)/C=C/c4ccccc4[N+](=O)[O-])[C@@H](C2)N(C)CC[C@]315
Ki [1]: 0.0298 µM | EC50 [2]: 0.285 µM | Ki [3]: 0.111 µM

COc1ccc2c3c1O[C@H]1[C@]4(OC)CC[C@@]5(C[C@@H]4CNC(=O)/C=C/c4ccccc4)[C@@H](C2)N(C)CC[C@]315
Ki [1]: 0.0237 µM | EC50 [2]: 0.131 µM | Ki [3]: 0.0864 µM

CO[C@@]12CC[C@@]3(C[C@@H]1CNC(=O)/C=C/c1ccccc1Cl)[C@H]1Cc4ccc(O)c5c4[C@@]3(CCN1C)[C@H]2O5
Ki [1]: 0.00164 µM | EC50 [2]: 0.00352 µM | Ki [3]: 0.00759 µM

CO[C@@]12CC[C@@]3(C[C@@H]1CNC(=O)/C=C/c1ccccc1C)[C@H]1Cc4ccc(O)c5c4[C@@]3(CCN1C)[C@H]2O5
Ki [1]: 0.00182 µM | Ki [3]: 0.00341 µM

COc1ccc2c3c1O[C@H]1[C@]4(OC)CC[C@@]5(C[C@@H]4CNC/C=C/c4ccccc4)[C@@H](C2)N(C)CC[C@]315
Ki [1]: 0.0264 µM | EC50 [2]: 0.106 µM | Ki [3]: 0.395 µM

CO[C@@]12CC[C@@]3(C[C@@H]1CNC(=O)/C=C/c1ccc(C)cc1)[C@H]1Cc4ccc(O)c5c4[C@@]3(CCN1C)[C@H]2O5
Ki [1]: 0.00311 µM | EC50 [2]: 0.00988 µM | Ki [3]: 0.00653 µM

CO[C@@]12CC[C@@]3(C[C@@H]1CNC(=O)/C=C/c1ccccc1)[C@H]1Cc4ccc(O)c5c4[C@@]3(CCN1C)[C@H]2O5
Ki [1]: 0.0053 µM | EC50 [2]: 0.0417 µM | EC50 (Mu-type opioid receptor): 0.0592 µM | Ki [3]: 0.0111 µM

CO[C@@]12CC[C@@]3(C[C@@H]1CNC/C=C/c1ccccc1)[C@H]1Cc4ccc(O)c5c4[C@@]3(CCN1C)[C@H]2O5
Ki [1]: 0.0066 µM | EC50 [2]: 0.00178 µM | EC50 (Mu-type opioid receptor): 0.0262 µM | Ki [3]: 0.0386 µM
